Experiment [1] deals with MCF-7 breast tumour cell line. In words: Tumor cell proliferation assay (CellTiter-Glo), MCF-7. The note with it: Homo sapiens, MCF7, 72 h drug exposure, read-out: MCF-7 median IC50. Type of experiment: cell-based. In general terms: Cellular ATP, detected with luciferase, serves as a proxy for viable cell number.
In experiment [2] the test system is KPL-4 breast cancer cell line. In words: Tumor cell proliferation assay (CellTiter-Glo), KPL-4. Type of experiment: cell-based. The conditions noted are these: Homo sapiens, KPL4, 72 h drug exposure, read-out: KLP-4 median IC50.
Experiment [3] has as its target His-tagged human recombinant kinase full-length Akt2 (Homo sapiens (Human), UniProt P31751). Nature of the experiment: Akt2 kinase assay (Akt2 TR-FRET assay). Type of experiment: biochemical. The note with it: 10 μM ATP, 60 min at 22° C., read-out: Akt2 median IC50.
A further experiment deals with p-4E-BP1 at T70. Nature of the experiment: Cellular p-4E-BP1-T70 assay in KPL-4 cells. Type of experiment: cell-based. The conditions noted are these: Homo sapiens, KPL4; KPL-4 breast tumour cell line, compound treatment 2 hours; read-out: P4EBP1-T70 median IC50.

Chains of the proteins cited; added tags and fusions are not shown. Lines headed by an entry give the natural chain unless they say otherwise; changes in a name come on top.
UniProt P31751: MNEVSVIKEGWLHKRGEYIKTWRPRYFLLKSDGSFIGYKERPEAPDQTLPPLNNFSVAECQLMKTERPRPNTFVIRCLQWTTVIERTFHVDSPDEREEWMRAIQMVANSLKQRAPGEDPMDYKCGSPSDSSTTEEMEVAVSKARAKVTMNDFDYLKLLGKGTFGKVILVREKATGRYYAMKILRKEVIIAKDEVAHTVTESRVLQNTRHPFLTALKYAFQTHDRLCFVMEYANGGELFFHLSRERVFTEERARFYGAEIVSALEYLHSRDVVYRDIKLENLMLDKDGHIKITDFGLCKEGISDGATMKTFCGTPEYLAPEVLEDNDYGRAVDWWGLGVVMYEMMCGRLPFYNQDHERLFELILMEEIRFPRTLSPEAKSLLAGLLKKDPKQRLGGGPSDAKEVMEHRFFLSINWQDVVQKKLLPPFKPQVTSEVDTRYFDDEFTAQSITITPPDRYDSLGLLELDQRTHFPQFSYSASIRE

The source of these data is patent publication US9604989B2, “Imidazopyridazines as Akt kinase inhibitors” (Bayer Intellectual Property GmbH, priority 2011, dated 2017).

Consider `NC1(c2ccc(-c3nc4c(-c5ccc(F)cc5)ccnn4c3-c3ccccc3)cc2)CCC1` [Example 44, 1-{4-[8-(4-Fluorophenyl)-3-phenylimidazo[1,2-b]pyridazin-2-yl]phenyl}cyclobutanamine], for which the half-inhibitory concentration (IC50) in experiment [1] amounted to 1.9 µM. For the molecule `NC(=O)c1ccc2nc(-c3ccc(C4(N)CCC4)cc3)c(-c3ccccc3)n2n1` [Example 5, 2-[4-(1-Aminocyclobutyl)phenyl]-3-phenylimidazo[1,2-b]pyridazine-6-carboxamide], the IC50 turned out to be 0.063 µM in experiment [1] and 0.17 µM in experiment [2]. For `NC1(c2ccc(-c3nc4c(O)ccnn4c3-c3ccccc3)cc2)CCC1` [Example 32, 2-[4-(1-Aminocyclobutyl)phenyl]-3-phenylimidazo[1,2-b]pyridazin-8-ol], the half-maximal inhibitory concentration (IC50) in experiment [3] came to 3.3 µM.

With `COc1cc(-c2ccnn2C)c2nc(-c3ccc(C4(N)CCC4)cc3)c(-c3ccccc3)n2n1` [Example 74, 1-{4-[6-Methoxy-8-(1-methyl-1H-pyrazol-5-yl)-3-phenylimidazo[1,2-b]pyridazin-2-yl]phenyl}cyclobutanamine], the IC50 with p-4E-BP1 at T70 was found to be 1.2 µM.

By IC50 is commonly meant the concentration needed to halve the response being measured.
